# According to patent US8552053B2, “7-substituted indirubin-3′oximes and their applications” (Centre National de la Recherche Scientifique, priority 2005, dated 2013):
# Test system: GSK-3α/β
# Experiment: GSK-3α/β kinase assay
# Assay type: biochemical, porcine
substance,measurement,setting,value
"(2′Z,3′E)-7-bromoindirubin-3′-oxime [7BIO]",inhibitory activity on GSK-3 (in words),,marginal inhibitory activity
same,inhibitory activity on GSK-3 (in words),listed as 24,weak and gradually decreasing inhibitory activity

# Like-named read-outs stand apart in the source and are kept apart here.
